Earlier results as cited in paper PMC4316792, “The dehydrogenase region of the NADPH oxidase component Nox2 acts as a protein disulfide isomerase (PDI) resembling PDIA3 with a role in the binding of the activator protein p67^phox” (Frontiers in Chemistry, 2015).

Test system: NADPH oxidase
Set-up: method as in 8 sources, one per row (each row's own in cited_ref): ref Shpungin et al., [1989] ||| ref Bellavite et al., [1983]; Gabig and Lefker, [1984] ||| ref Pick et al., [1987] ||| ref Le Cabec and Maridonneau-Parini, [1995] ||| ref Nishida et al., [2005] ||| ...
Conditions: cited from earlier work

Structure (SMILES): O=C(O)c1cc[c]([Hg][OH])cc1 [HMBA, 4-(hydroxymercuri)benzoic acid]
- activity of treated macrophage membrane liposomes in a cell-free oxidase activation system: inactive
